Data published in US9034862B2, “Compositions and methods for the treatment of cancer” (priority 2011, dated 2015).
Where two headings read alike, the source gives them in different places.

Assays:
[1] = test system: A549, HT29, MRC5, and HeLa cells; conditions: 5 μM, 3 h
[2] = D2O at 37° C.

cis-[Pt(NH3)2(phenanthridine)Cl]NO3 [phenanthriplatin]
Mortality (Phase 1, 15 mg/kg IV): two animals from Group 2 (15 mg/kg) died immediately after dosing | Mortality (Phase 1, other groups (1.5, 0.15, 0.015 mg/kg IV)): No mortality | Mortality (Phase 2, 5.6 mg/kg IV, three animals dosed): One animal died within a few minutes after dosing | Mortality (Phase 2, 7.8 mg/kg IV, three animals dosed): Two animals died within a few minutes after dosing | Mortality (Phase 2, 10.8 mg/kg IV): one animal died immediately after dosing | Mortality (Phase 2, 15 mg/kg IV): one animal died from Group 9 (15 mg/kg) immediately after dosing | Mortality (Phase 2, 4, 2.9, 2.1 and 1.5 mg/kg IV, three animals dosed): no mortality was observed | change in body weight (all animals that survived past the first day): no significant change in body weight | maximum tolerated dose (MTD) (intravenous, Albino ICR mice): approximately 4 mg/kg | cellular uptake of platinum [1]: taken up by cells more effectively than cisplatin or pyriplatin | equilibrium constant for aquation [2]: approximately 0.05 | time after which aquation reaction is complete (equilibrium with aqua analogue) [2]: 1 h
